Results: paper PMC8704707 (Pharmaceuticals, 2021)

Protein sequences, listed by entry. Tags and fused reporters are not part of them. Residues count along the entry.
UniProt O42275, 24-633 limits assumed: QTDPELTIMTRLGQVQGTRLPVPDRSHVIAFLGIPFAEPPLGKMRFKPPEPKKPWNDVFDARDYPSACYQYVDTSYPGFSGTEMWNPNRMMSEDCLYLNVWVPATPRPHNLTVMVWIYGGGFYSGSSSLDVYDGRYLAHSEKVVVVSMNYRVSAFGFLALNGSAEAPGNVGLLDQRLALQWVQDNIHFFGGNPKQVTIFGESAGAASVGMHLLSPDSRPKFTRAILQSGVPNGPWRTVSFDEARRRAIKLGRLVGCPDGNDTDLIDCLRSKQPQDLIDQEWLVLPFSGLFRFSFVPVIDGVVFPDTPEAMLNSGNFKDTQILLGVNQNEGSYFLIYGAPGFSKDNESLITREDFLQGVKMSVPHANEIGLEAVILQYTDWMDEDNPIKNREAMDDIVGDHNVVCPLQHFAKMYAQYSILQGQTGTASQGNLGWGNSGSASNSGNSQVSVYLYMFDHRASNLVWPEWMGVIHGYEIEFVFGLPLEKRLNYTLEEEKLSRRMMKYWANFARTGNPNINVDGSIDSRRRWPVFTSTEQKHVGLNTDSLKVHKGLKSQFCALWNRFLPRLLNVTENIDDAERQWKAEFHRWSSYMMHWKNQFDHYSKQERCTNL
UniProt P81908, whole entry: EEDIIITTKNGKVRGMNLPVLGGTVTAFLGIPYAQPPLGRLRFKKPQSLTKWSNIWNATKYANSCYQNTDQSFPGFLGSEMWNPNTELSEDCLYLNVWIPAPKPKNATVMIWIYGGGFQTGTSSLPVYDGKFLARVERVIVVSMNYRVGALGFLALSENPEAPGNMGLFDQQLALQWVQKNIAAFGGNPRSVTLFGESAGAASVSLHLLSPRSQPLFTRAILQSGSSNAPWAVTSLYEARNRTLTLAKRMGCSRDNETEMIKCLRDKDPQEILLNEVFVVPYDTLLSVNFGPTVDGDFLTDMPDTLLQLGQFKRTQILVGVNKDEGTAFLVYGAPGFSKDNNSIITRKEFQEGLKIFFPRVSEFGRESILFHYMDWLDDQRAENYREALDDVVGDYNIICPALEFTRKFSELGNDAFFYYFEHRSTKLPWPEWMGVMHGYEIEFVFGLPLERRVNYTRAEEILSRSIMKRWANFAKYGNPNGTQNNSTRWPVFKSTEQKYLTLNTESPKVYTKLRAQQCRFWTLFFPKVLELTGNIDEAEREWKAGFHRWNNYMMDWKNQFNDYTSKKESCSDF

Legend:
[1] = target: AChE from electric eel (EeAChE) (Electrophorus electricus, UniProt O42275); experiment: Inhibition of acetylcholinesterase, Ellman's method; type: biochemical
[2] = target: BuChE from equine serum (EqBuChE) (Equus caballus, UniProt P81908); experiment: Inhibition of butyrylcholinesterase, Ellman's method; type: biochemical; conditions: read-out: IC50 BuChE; mean ± SD, n = three independent experiments; BTCh 40 µM
HepG2 cells = experiment: Cytotoxicity, CellTiter 96 (MTS) assay; conditions: range of tested concentrations up to 500 µM

Q: How did the Selectivity AChE/BuChE ([1]; ratio of IC50 for AChE/IC50 for BuChE, values above 1 indicate stronger inhibition of BuChE) turn out when `N=C(NN)N[N+](=O)[O-]` was run?
A: The Selectivity AChE/BuChE was under 0.09.

Q: And the IC50 ([1]; read-out: IC50 AChE, mean ± SD, n = three independent experiments, ATCh 40 µM)?
A: The IC50 was 46.9 µM.

Q: What about the IC50 [2] of the same compound?
A: Its IC50 is over 500 µM.

Q: What about the “Cytotoxicity in HepG2 in words” value (HepG2 cells) of the same compound?
A: The value was “no significant cytotoxicity”.

This is a selection: effects in other tests are not listed, and their absence says nothing.
